In the experiment the target is T1, β-galactosidase (Escherichia coli, UniProt P00722).
T1 construct: gene lacZ

Amino acid sequences for entries named in this document (tags omitted). Residues count along the entry.
UniProt P00722, 2-1024: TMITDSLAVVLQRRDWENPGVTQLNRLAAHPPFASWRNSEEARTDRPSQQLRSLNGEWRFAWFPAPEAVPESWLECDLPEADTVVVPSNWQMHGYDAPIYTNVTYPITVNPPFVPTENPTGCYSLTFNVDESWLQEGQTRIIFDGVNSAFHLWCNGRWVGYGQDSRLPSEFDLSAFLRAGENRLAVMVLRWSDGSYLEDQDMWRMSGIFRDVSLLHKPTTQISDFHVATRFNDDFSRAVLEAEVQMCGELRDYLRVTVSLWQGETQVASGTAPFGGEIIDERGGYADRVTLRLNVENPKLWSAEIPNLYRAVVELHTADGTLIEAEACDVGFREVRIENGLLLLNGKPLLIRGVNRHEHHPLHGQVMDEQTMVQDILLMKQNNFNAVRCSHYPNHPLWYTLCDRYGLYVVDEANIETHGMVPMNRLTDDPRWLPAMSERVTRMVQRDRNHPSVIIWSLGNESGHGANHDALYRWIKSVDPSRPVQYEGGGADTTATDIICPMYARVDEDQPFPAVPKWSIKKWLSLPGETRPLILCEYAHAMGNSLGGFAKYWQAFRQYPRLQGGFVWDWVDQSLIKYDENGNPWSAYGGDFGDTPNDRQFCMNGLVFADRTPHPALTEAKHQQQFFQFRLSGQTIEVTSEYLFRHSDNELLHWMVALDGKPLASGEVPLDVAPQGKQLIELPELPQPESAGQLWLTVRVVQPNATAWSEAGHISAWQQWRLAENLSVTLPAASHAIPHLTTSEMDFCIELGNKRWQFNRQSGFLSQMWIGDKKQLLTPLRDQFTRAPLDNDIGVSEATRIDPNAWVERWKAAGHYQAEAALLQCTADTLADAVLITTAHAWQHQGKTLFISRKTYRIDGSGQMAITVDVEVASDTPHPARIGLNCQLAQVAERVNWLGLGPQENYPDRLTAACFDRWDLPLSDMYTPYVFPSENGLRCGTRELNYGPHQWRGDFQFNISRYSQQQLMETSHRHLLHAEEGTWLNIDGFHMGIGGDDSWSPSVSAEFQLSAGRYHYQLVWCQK

For the molecule `CC(C)n1[c]([Ag-][Cl])[n+](Cc2ccccn2)c2ccccc21` [1-Cl], the “ONPG hydrolysis in lysed E. coli cells with 30 μM compound” value was 1-Cl, 2-Cl and silver nitrate completely blocked OPNG hydrolysis.
Consider `COCCn1[c]([Ag-][Cl])[n+](Cc2ccccn2)c2ccccc21` [2-Cl], for which the “ONPG hydrolysis in lysed E. coli cells with 30 μM compound” value is 1-Cl, 2-Cl and silver nitrate completely blocked OPNG hydrolysis.

These data come from PMC11744769, “Modulation of the mechanism of action of antibacterial silver N-heterocyclic carbene complexes by variation of the halide ligand” (RSC Advances, 2025).
